We go through five substances from patent publication US20090099029.

The data set addresses Bovine, dephosphorylated, Myelin Basic Protein (MBP) (UniProt P02687).
In the case of CDK2/cyclin A, the “MBP Kinase Activity” value was “Strong”.
As for DYRK1A, the “MBP Kinase Activity” value is given as “Negative”.
Regarding PRKACA(PKA), the “MBP Kinase Activity” value is listed as “Negative”.
Regarding SRC, the “MBP Kinase Activity” value is “Strong”.
To SYK belongs “Negative”.
